Among the data in ChEMBL document CHEMBL4414617, “Identification of 2-Imidazopyridine and 2-Aminopyridone Purinones as Potent Pan-Janus Kinase (JAK) Inhibitors for the Inhaled Treatment of Respiratory Diseases” (J Med Chem, 2019) are IC50 values, retold here.

Chains of the proteins cited; added tags and fusions are not shown. Lines headed by an entry give the natural chain unless they say otherwise; changes in a name come on top.
UniProt P29597: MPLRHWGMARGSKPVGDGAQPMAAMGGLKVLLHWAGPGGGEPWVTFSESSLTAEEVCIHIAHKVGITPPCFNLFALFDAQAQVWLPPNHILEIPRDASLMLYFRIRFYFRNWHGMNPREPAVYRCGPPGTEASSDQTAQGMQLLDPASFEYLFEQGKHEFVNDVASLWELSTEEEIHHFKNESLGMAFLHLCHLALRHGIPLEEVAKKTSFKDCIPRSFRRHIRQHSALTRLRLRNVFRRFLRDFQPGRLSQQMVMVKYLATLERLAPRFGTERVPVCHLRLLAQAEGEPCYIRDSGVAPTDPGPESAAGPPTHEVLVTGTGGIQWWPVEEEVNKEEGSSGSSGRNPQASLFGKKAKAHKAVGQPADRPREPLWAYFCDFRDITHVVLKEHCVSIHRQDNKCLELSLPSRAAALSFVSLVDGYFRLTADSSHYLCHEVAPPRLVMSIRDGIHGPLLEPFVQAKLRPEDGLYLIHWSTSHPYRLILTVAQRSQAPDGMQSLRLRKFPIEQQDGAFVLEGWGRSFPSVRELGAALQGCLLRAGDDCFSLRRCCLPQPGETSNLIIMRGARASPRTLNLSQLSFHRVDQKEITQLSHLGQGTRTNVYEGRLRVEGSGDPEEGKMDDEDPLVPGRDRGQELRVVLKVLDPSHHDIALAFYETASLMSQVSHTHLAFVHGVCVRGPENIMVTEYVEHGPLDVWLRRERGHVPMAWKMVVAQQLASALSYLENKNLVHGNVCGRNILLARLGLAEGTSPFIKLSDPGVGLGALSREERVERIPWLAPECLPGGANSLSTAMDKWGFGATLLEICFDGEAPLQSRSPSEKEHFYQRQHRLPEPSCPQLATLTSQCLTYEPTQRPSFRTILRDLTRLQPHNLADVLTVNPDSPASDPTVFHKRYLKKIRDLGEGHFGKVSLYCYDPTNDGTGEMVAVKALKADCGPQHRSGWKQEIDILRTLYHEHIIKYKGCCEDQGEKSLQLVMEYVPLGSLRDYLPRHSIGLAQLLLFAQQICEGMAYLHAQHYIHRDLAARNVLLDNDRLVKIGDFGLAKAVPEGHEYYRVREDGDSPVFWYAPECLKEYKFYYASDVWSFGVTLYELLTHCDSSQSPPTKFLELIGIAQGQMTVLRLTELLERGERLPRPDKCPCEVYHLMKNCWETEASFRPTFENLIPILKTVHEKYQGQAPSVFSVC

For this test, the target named is Non-receptor tyrosine-protein kinase TYK2 (Homo sapiens, UniProt P29597).

On to `N#CC[C@H]1CC[C@H](n2c(=O)[nH]c3cnc(Nc4ccc[nH]c4=O)nc32)CC1`, for which the IC50 (as a rule, the concentration needed to halve the response being measured) was 0.13 µM.
